The structures appear in SMILES notation. For part of these data: Most of the hits are listed elsewhere, so they are rarer here than in the full data. Inconclusive results are not listed. This is a selection; strong and weak results do not stand in their true shares. Active and inactive are the calls of the source. How the source made its calls, unless noted: active means hit-call score of the fitted dose curve at least 0.9, where 1 is the maximum; inactive means score below 0.9.

One experiment in a line: ATG_RORE_CIS: Attagene CIS-FACTORIAL HepG2 Assay for human RAR-related Orphan Receptor Element (RORE) (AID 2282959). The settings on record: HepG2 Attagene cis-factorial RORE reporter, mRNA; actives raise or lower the signal.
`[O-]/[N+](=N\O)c1ccccc1`: the molecule was called inactive.

Regarding `CC(=O)[C@@]1(O)CC[C@H]2[C@@H]3C[C@H](C)C4=CC(=O)C=C[C@]4(C)[C@@]3(F)[C@@H](O)C[C@@]21C`, the molecule was called inactive.

Turning to `C=C[Si](OCCOC)(OCCOC)OCCOC`, the molecule was classed as inactive.

Turning to `COCc1c(C(C)C)nc(C(C)C)c(/C=C/[C@@H](O)C[C@@H](O)CC(=O)O)c1-c1ccc(F)cc1`, the outcome was inactive.

As for `CCCCCCCCCCCCCO`, the outcome was inactive.

In the case of `c1ccc2c(c1)[nH]c1ccccc12`, the molecule was called inactive.

Turning to `CC1OC(=O)C(C)OC1=O` (stereo not given), the outcome was inactive.

For the molecule `CCOC(=O)C(C)Oc1ccc(Oc2nc3ccc(Cl)cc3o2)cc1` (stereo not given), the outcome was inactive.

On to `CCC1(C)NC(=O)NC1=O` (stereo not given), for which the outcome was inactive.

Turning to `C=CC(=O)O[C@H]1C[C@@H]2CC[C@@]1(C)C2(C)C`, the outcome was inactive.

As to `Nc1ccc(N)c(Cl)c1`, the molecule was classed as inactive.

For `CCOC(=O)[C@H](O)[C@@H](O)C(=O)OCC`, the call was inactive.

As to `C=CCOC(=O)CCC1CCCCC1`, the molecule was called inactive.

As to `COCCOc1cc2cc(C(=O)NC3CCN(C(C)C)CC3)n(CC(=O)Nc3ccc(Cl)cn3)c2cn1`, the AC50 is active: 100 µM.

For the molecule `CCOc1ccc(N=Nc2ccc(C=Cc3ccc(N=Nc4ccc(OCC)cc4)cc3S(=O)(=O)O)c(S(=O)(=O)O)c2)cc1`, the call was inactive.

For the molecule `CCCCCCCCCCCCCCCC`, the molecule was classed as inactive.

Regarding `CCc1cccc(C)c1N(C(=O)CS(=O)(=O)O)C(C)COC` (stereo not given), the outcome was inactive.

With `CCOC(=O)[C@H](C)Oc1ccc(Oc2nc3ccc(Cl)cc3o2)cc1`, the molecule was classed as inactive.

On to `CC(C)Nc1nc(N)nc(Cl)n1`, for which the molecule was classed as inactive.

For `O=C(O)c1cccc(Cl)n1`, the call was inactive.

Turning to `CCOC(=O)OC(=O)OCC`, the call was inactive.

In the case of `CC(C)(COC(=O)c1ccccc1)COC(=O)c1ccccc1`, the AC50 is active: 51.1 µM.

As to `CC(c1cc2ccccc2s1)N(O)C(N)=O` (stereo not given), the molecule was called inactive.

For `OCCNCCO`, the outcome was inactive.

Turning to `CC1CCC(=O)C1=O` (stereo not given), the call was inactive.

For `Oc1ccc(Cl)cc1Cc1cc(Cl)ccc1O`, the AC50 was active: 5.31 µM.

As to `CCCCCCOC(=O)CCCCCCCC(=O)OCCCCCC`, the molecule was classed as inactive.

A short description of a further experiment: TOX21_p53_BLA_p4_viability: Viability Assessment in the Tox21 HCT-116 p53 Agonism Beta-lactamase Assay, Phase 4 (AID 2283597; active means hit-call score of the fitted dose curve at least 0.9, where 1 is the maximum;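 further: hits lower the luminescence signal meaning cytotoxicity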).
Details: not given
Summed up:
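In this multiplexed secondary endpoint, HCT116 cells (4000 per well, compound at 5 h, 16 h treatment) received CellTiter-Glo after the beta-lactamase read. Luminescence after 30 min RT reflects ATP, and falling signal marks cytotoxicity.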
For the molecule `CCN[C@@H]1C[C@H](N)[C@@H](OC2OC(CN)=CCC2N)[C@H](O)[C@H]1O[C@H]1OC[C@](C)(O)[C@H](NC)[C@H]1O` (stereo not given in full), the call was inactive.

Turning to `CCOC(=O)C1=C[C@@H](OC(CC)CC)[C@H](NC(C)=O)[C@@H](N)C1`, the call was inactive.

`CCN(CCO)CCCC(C)Nc1ccnc2cc(Cl)ccc12` (stereo not given): the outcome was inactive.

The values above are taken from PubChem BioAssay (EPA / NIEHS).
